The values below are quoted from earlier work in patent US4935449A, “N-2,3-butadienyl tri- and tetraaminoalkane derivatives” (Merrell Dow Pharmaceuticals Inc., priority 1988, dated 1990).

The structures appear in SMILES notation.

The data set relates to tissue spermidine content. To be noted: combined with α-difluoromethylornithine; cited from earlier work.

On to `C=C=CCNCCCCNCC=C=C` [N^1,N^4-bis-(2,3-butadienyl)-1,4-butanediamine], for which the tissue spermidine content result is listed as “significant decline in tissue spermidine content”.
